Measurements published in patent US6534659B2, “Sufidomaidocarboxylic acids, method for production thereof, and use therefor” (Nippon Shokubai Co., Ltd., priority 2000, dated 2003).

How the values were obtained:
[1] = Ability to inhibit corrosion by polarization resistance (Rp), iron electrodes; conditions: for Rp: iron electrode, sodium salt
[2] = Ability to inhibit corrosion by polarization resistance (Rp), low-carbon steel electrodes (X65); conditions: Electrode X65
[3] = Electrode Fe, S group 14.2 μmole/liter, PEI 10 ppm
[4] = S group 14.2 μmole/liter, PEI 10 ppm

Compound | Rp After 20 min. [1, 3] [ohm] | Rp After 15 hrs [1, 3] [ohm] | Rp Peak [1, 3] [ohm] | Rp ([1]; after the elapse of 20 minutes) | Rp ([1]; after the elapse of 15 hours) | Rp ([1]; peak) | Rp After 20 min. [2, 4] [ohm] | Rp Peak [2, 4] [ohm] | Rp After 20 hours ([2]; footnote **: After 20 hours) [ohm] | Rp After 25 minutes ([1]; Electrode Fe, footnote *: After 25 minutes) | Rp ([1]; after the elapse of 25 minutes)
CC1(C)SCCN1C(=O)c1ccccc1C(=O)O [Example 1, N-(2-carboxybenzoyl)-2,2-dimethylthiazolidine] | 210 | 3000 | 7100 | 210 Ω | 3000 Ω | about 7100 Ω | 620 | 6500 | 3380 | – | –
CC1(C)SCCN1C(=O)CCC(=O)O [Example 3, N-(2-carboxylethylcarbonyl)-2,2-dimethylthiazolidine] | – | 3600 | 4160 | – | 3600 Ω | about 4160 Ω | – | – | – | 280* ohm | 280 Ω
